Data: ChEMBL document CHEMBL4316619 (Bioorg Med Chem Lett, 2019)

What was measured:
[1] = Ratio of AUClast in lung to plasma of C57BL/6 mouse at 30 mg/kg, ip; details: other tissue, strain C57BL/6, Lung/Plasma
[2] = Ratio of AUClast in liver to plasma of C57BL/6 mouse at 30 mg/kg, ip; details: other tissue, strain C57BL/6, Liver/Plasma
[3] = Efflux ratio of permeability from basolateral to apical over apical to basolateral side in human Caco2 cells in presence of 3% BSA; details: caco-2

Work on COc1cc(-c2ccnc3c2c(C)nn3-c2ccc(C(F)(F)F)cc2)ccc1O yielded a Ratio AUC [1] of 704%, a Ratio AUC [2] of 1050% and a Ratio [3] of 1.2.
